Values of other authors as cited in article PMC12369603, “Functional characterization of antennae-enriched chemosensory protein 4 in emerald ash borer, Agrilus planipennis” (PeerJ, 2025).

Tested on: female A. planipennis
Settings: ref Cáceres et al., 2016, Sun et al.; cited from earlier work

Q: For CC(=O)/C=C/C1=C(C)CCCC1(C)C [β-Ionone], which repellent activity is on record?
A: repellent activity
